Test results published in patent US6559164B1, “Substituted pyrroles suitable for continuous infusion” (Hoffmann-La Roche Inc., priority 1999, dated 2003).

Columns and labels:
[1] = Plasma conversion (degradation in plasma to the active metabolite); format: in vitro ADME; details: @ 30 min; human or rodent plasma at 37° C.; percent degradation
Procedure: “Plasma conversion” with respect to compounds of formula I means the degradation (enzymatic and/or non-enzymatic) of such compound in human or rodent plasma at 37° C. from 30 minutes to 6 hours to give 3-(1-methyl-3-indolyl)-4-(1-methyl-6-nitro-3-indolyl)-1H-pyrrole-2,5-dione, a pharmaceutically active metabolite of compounds of formula I, as well as pharmaceutically active metabolites thereof. This conversion is typically given as the percent degradation over a specified time frame.

[2] = Stability in solution for intravenous administration (release of 3-(1-methyl-3-indolyl)-4-(1-methyl-6-nitro-3-indolyl)-1H-pyrrole-2,5-dione); format: physicochemical; details: 72 hours at room temperature in a mixture of acetonitrile and saline or dextrose water; parent pyrrole-2,5-dione detected
Procedure: “Stability” is an overall assessment of the ability of a compound of formula I to withstand degradation in a typical solution used for the administration of drugs intravenously. Specifically, it refers to the ability of any given compound of formula I to release 3-(1-methyl-3-indolyl)-4-(1-methyl-6-nitro-3-indolyl)-1H-pyrrole-2,5-dione, over a 72 hour period in a mixture of acetonitrile and saline or dextrose water. The
“stability” of a compound of formula I is “very good” if the less than 1% 3-(1-Methyl-3-indolyl)-4-(1-methyl-6-nitro-3-indolyl)-1H-pyrrole-2,5-dione is detected, “good” if less than 2.5% 3-(1-Methyl-3-indolyl)-4-(1-methyl-6-nitro-3-indolyl)-1H-pyrrole-2,5-dione is detected, and “fair” if less than 5% 3-(1-Methyl-3-indolyl)-4-(1-methyl-6-nitro-3-indolyl)-1H-pyrrole-2,5-dione is detected after 72 hours incubation at room temperature.

Substance | Plasma Conversion [1] | Stability [2]
O-[2-[[2,5-dihydro-3-(1-methyl-1H-indol-3-yl)-4-(1-methyl-6-nitro-1H-indol-3-yl)-2,5-dioxo-2,5-dihydro-pyrrol-1-yl]methoxycarbonyl]ethyl]-O′-methylpolyethylene glycol 2000 [Example 3b] | 80% @ 30 min | Good
O-[2-[[4-[[[2,5-Dihydro-3-(1-Methyl-1H-indol-3-yl)-4-(1-methyl-6-nitro-1H-indol-3-yl)-2,5-dioxo-1H-pyrrol-1-yl]methoxy]carbonyl]-1-piperidinyl]carbonyl]ethyl]-O′-methylpolyethylene Glycol 1000 [Example 13] |  | Good
